Assay: Salt/co-crystal screening: 38 acids, eight solvent systems, solids analysed by XRPD
Assay type: physicochemical
Conditions: acid/freebase charge 1:1 unless label says 2:1, stirred at RT, else 5° C. slurry, anti-solvent addition or evaporation (footnote marks)
Procedure: XRPD analysis was performed with a Panalytical X'Pert^3 Powder XRPD on a Si zero-background holder. The 2θ position was calibrated against Panalytical Si reference standard disc.
A total of 320 salt/co-crystal screening experiments were conducted using 38 acids (two molar ratios for HCl and HBr) and eight solvent systems. Specifically, freebase stock solutions of ˜100 mg/mL were first prepared in each solvent system. For each experiment, 0.2 mL stock solution and the corresponding acids were mixed in a molar charge ratio of 1:1 (acid/freebase, 2:1 for HCl/freebase and HBr/freebase as well), and then stirred at RT. After stirring for 3-5 days, if precipitation was observed, the precipitate was isolated. It no precipitation, the clear solutions were first transferred to slurry at 5° C. to introduce precipitation. Solutions without any precipitation were further subjected to anti-solvent addition (for solvents in column B/D, 0.5 mL hexane was added; for solvents in column G/H, 0.5 mL water was added; for solvent in column F, 0.5 mL n-heptane was added). If still no precipitation, the final clear solutions were transferred to evaporation at RT to induce precipitation. All solids isolated were vacuum dried at RT for 2 hrs before XRPD analysis.

Solid obtained in salt screening (XRPD), solvent H Dioxane/H2O (9:1, v/v) (Dioxane/H2O (9:1, v/v)): gel*
Solid obtained in salt screening (XRPD), solvent A Ethanol (Ethanol): gel*
Solid obtained in salt screening (XRPD), solvent G Methanol/H2O (19:1, v/v) (Methanol/H2O (19:1, v/v)): gel*
Solid obtained in salt screening (XRPD), solvent C THF (THF): gel*
Substance: H3PO4
